# Measured values from ChEMBL document CHEMBL4689842, “EUbOPEN Chemogenomics Library wave 1” (2021).
# “And” between values parts separate entries of the source, which are not always exact repeats. Equal values may be shown once. Only a part of the results on these compounds is given; other tests are left out.
# Key:
# Assay type in all cases: toxicity, cell-based
# Fibroblast [1] = assay: Multiplex assay against human fibroblast
# U2OS [2] = assay: Multiplex assay against U2OS; settings: human
# Fibroblast [3] = assay: Incucyte cell viability with human fibroblast; settings: 10 µM; further: filed as whole numbers so only -1 and 0 and 1 occur
# U2OS [4] = assay: Incucyte cell viability with U2OS; settings: human, 10 µM; further: filed as whole numbers so only -1 and 0 and 1 occur
structure (smiles),measurement,setting,value
CC(=O)N1CCc2ccc(N(C(=O)/C=C/c3cccc(C#N)c3)C3CCN(CCC4CCCC4)CC3)cc21,Population Apoptotic (%),"Fibroblast [1]; 0 h, 1 µM",69% and 62%
same,Population Fragmented Nuclei (%),"Fibroblast [1]; 0 h, 1 µM",31% and 17%
same,Population Hoechst High Intensity Objects (%),"Fibroblast [1]; 0 h, 1 µM",12% and 6%
same,Population Membrane Permeable-Phenotype (%),"Fibroblast [1]; 0 h, 1 µM",3%
same,Population Mitochondria Different-Phenotype (%),"Fibroblast [1]; 0 h, 1 µM",34% and 26%
same,Population Mitotic Cells (%),"Fibroblast [1]; 0 h, 1 µM",30% and 37%
same,Population Normal (%),"Fibroblast [1]; 0 h, 1 µM",87% and 93%
same,Population Tubulin-Different-Phenotype (%),"Fibroblast [1]; 0 h, 1 µM",20% and 24%
same,Population Apoptotic (%),"Fibroblast [1]; 0 h, 10 µM",70% and 45%
same,Population Hoechst High Intensity Objects (%),"Fibroblast [1]; 0 h, 10 µM",23% and 12%
same,Population Mitochondria Different-Phenotype (%),"Fibroblast [1]; 0 h, 10 µM",17% and 21%
same,Population Mitotic Cells (%),"Fibroblast [1]; 0 h, 10 µM",29% and 54%
same,Population Normal (%),"Fibroblast [1]; 0 h, 10 µM",76% and 87%
same,Population Pyknosed Nuclei (%),"Fibroblast [1]; 0 h, 10 µM",37% and 19%
same,Total Cell Count,"Fibroblast [1]; 0 h, 10 µM",108 and 132
same,Population Apoptotic (%),"Fibroblast [1]; 12 h, 1 µM",70% and 50%
same,Population Fragmented Nuclei (%),"Fibroblast [1]; 12 h, 1 µM",18% and 12%
same,Population Hoechst High Intensity Objects (%),"Fibroblast [1]; 12 h, 1 µM",6% and 9%
same,Population Mitochondria Different-Phenotype (%),"Fibroblast [1]; 12 h, 1 µM",27% and 18%
same,Population Mitotic Cells (%),"Fibroblast [1]; 12 h, 1 µM",29% and 50%
same,Population Normal (%),"Fibroblast [1]; 12 h, 1 µM",93% and 90%
same,Total Cell Count,"Fibroblast [1]; 12 h, 1 µM",163 and 100
same,Population Apoptotic (%),"Fibroblast [1]; 12 h, 10 µM",66%
same,Population Membrane Permeable-Phenotype (%),"Fibroblast [1]; 12 h, 10 µM",16% and 24%
same,Population Mitotic Cells (%),"Fibroblast [1]; 12 h, 10 µM",33%
same,Population Normal (%),"Fibroblast [1]; 12 h, 10 µM",83% and 93%
same,Population Pyknosed Nuclei (%),"Fibroblast [1]; 12 h, 10 µM",29% and 19%
same,Total Cell Count,"Fibroblast [1]; 12 h, 10 µM",86 and 54
same,Population Apoptotic (%),"Fibroblast [1]; 24 h, 1 µM",59% and 62%
same,Population Healthy Nuclei (%),"Fibroblast [1]; 24 h, 1 µM",52% and 75%
same,Population Hoechst High Intensity Objects (%),"Fibroblast [1]; 24 h, 1 µM",15% and 11%
same,Population Mitotic Cells (%),"Fibroblast [1]; 24 h, 1 µM",40% and 37%
same,Population Normal (%),"Fibroblast [1]; 24 h, 1 µM",84% and 88%
same,Population Pyknosed Nuclei (%),"Fibroblast [1]; 24 h, 1 µM",20% and 15%
same,Total Cell Count,"Fibroblast [1]; 24 h, 1 µM",184 and 125
same,Population Apoptotic (%),"Fibroblast [1]; 24 h, 10 µM",78% and 76%
same,Population Membrane Permeable-Phenotype (%),"Fibroblast [1]; 24 h, 10 µM",20% and 22%
same,Population Mitotic Cells (%),"Fibroblast [1]; 24 h, 10 µM",21% and 23%
same,Population Normal (%),"Fibroblast [1]; 24 h, 10 µM",76% and 95%
same,Population Pyknosed Nuclei (%),"Fibroblast [1]; 24 h, 10 µM",20%
same,Population Tubulin-Different-Phenotype (%),"Fibroblast [1]; 24 h, 10 µM",91% and 88%
same,Total Cell Count,"Fibroblast [1]; 24 h, 10 µM",89 and 60
same,Population Fragmented Nuclei (%),"Fibroblast [1]; 48 h, 1 µM",49% and 28%
same,Population Hoechst High Intensity Objects (%),"Fibroblast [1]; 48 h, 1 µM",15% and 12%
same,Population Membrane Permeable-Phenotype (%),"Fibroblast [1]; 48 h, 1 µM",15% and 12%
same,Population Normal (%),"Fibroblast [1]; 48 h, 1 µM",84% and 87%
same,Population Tubulin-Different-Phenotype (%),"Fibroblast [1]; 48 h, 1 µM",78% and 53%
same,Population Fragmented Nuclei (%),"Fibroblast [1]; 48 h, 10 µM",54%
same,Population Healthy Nuclei (%),"Fibroblast [1]; 48 h, 10 µM",45% and 37%
same,Population Mitotic Cells (%),"Fibroblast [1]; 48 h, 10 µM",0%
same,Population Normal (%),"Fibroblast [1]; 48 h, 10 µM",84% and 63%
same,Population Tubulin-Different-Phenotype (%),"Fibroblast [1]; 48 h, 10 µM",96% and 80%
same,Population Apoptotic (%),"U2OS [2]; 0 h, 1 µM",18% and 33%
same,Population Fragmented Nuclei (%),"U2OS [2]; 0 h, 1 µM",10% and 12%
same,Population Healthy Nuclei (%),"U2OS [2]; 0 h, 1 µM",69% and 74%
same,Population Hoechst High Intensity Objects (%),"U2OS [2]; 0 h, 1 µM",16% and 11%
same,Population Mitochondria Different-Phenotype (%),"U2OS [2]; 0 h, 1 µM",24% and 17%
same,Population Mitotic Cells (%),"U2OS [2]; 0 h, 1 µM",81% and 66%
same,Population Normal (%),"U2OS [2]; 0 h, 1 µM",83% and 88%
same,Population Pyknosed Nuclei (%),"U2OS [2]; 0 h, 1 µM",20% and 12%
same,Population Tubulin-Different-Phenotype (%),"U2OS [2]; 0 h, 1 µM",9% and 17%
same,Total Cell Count,"U2OS [2]; 0 h, 1 µM",161 and 84
same,Population Fragmented Nuclei (%),"U2OS [2]; 0 h, 10 µM",9% and 12%
same,Population Healthy Nuclei (%),"U2OS [2]; 0 h, 10 µM",74% and 77%
same,Population Hoechst High Intensity Objects (%),"U2OS [2]; 0 h, 10 µM",5% and 6%
same,Population Mitotic Cells (%),"U2OS [2]; 0 h, 10 µM",75% and 100%
same,Population Normal (%),"U2OS [2]; 0 h, 10 µM",94% and 93%
same,Population Pyknosed Nuclei (%),"U2OS [2]; 0 h, 10 µM",16% and 9%
same,Population Tubulin-Different-Phenotype (%),"U2OS [2]; 0 h, 10 µM",9% and 16%
same,Population Apoptotic (%),"U2OS [2]; 12 h, 1 µM",37% and 50%
same,Population Fragmented Nuclei (%),"U2OS [2]; 12 h, 1 µM",10% and 12%
same,Population Healthy Nuclei (%),"U2OS [2]; 12 h, 1 µM",72% and 75%
same,Population Hoechst High Intensity Objects (%),"U2OS [2]; 12 h, 1 µM",8% and 9%
same,Population Mitotic Cells (%),"U2OS [2]; 12 h, 1 µM",62% and 50%
same,Population Normal (%),"U2OS [2]; 12 h, 1 µM",91% and 90%
same,Population Pyknosed Nuclei (%),"U2OS [2]; 12 h, 1 µM",17% and 12%
same,Total Cell Count,"U2OS [2]; 12 h, 1 µM",198 and 100
same,Population Apoptotic (%),"U2OS [2]; 12 h, 10 µM",66% and 74%
same,Population Fragmented Nuclei (%),"U2OS [2]; 12 h, 10 µM",6% and 10%
same,Population Healthy Nuclei (%),"U2OS [2]; 12 h, 10 µM",73% and 70%
same,Population Hoechst High Intensity Objects (%),"U2OS [2]; 12 h, 10 µM",6% and 3%
same,Population Mitochondria Different-Phenotype (%),"U2OS [2]; 12 h, 10 µM",93% and 99%
same,Population Mitotic Cells (%),"U2OS [2]; 12 h, 10 µM",33% and 25%
same,Population Normal (%),"U2OS [2]; 12 h, 10 µM",93% and 96%
same,Population Pyknosed Nuclei (%),"U2OS [2]; 12 h, 10 µM",19%
same,Population Tubulin-Different-Phenotype (%),"U2OS [2]; 12 h, 10 µM",100%
same,Population Apoptotic (%),"U2OS [2]; 24 h, 1 µM",58% and 62%
same,Population Fragmented Nuclei (%),"U2OS [2]; 24 h, 1 µM",7% and 9%
same,Population Healthy Nuclei (%),"U2OS [2]; 24 h, 1 µM",72% and 75%
same,Population Hoechst High Intensity Objects (%),"U2OS [2]; 24 h, 1 µM",7% and 11%
same,Population Mitotic Cells (%),"U2OS [2]; 24 h, 1 µM",41% and 37%
same,Population Normal (%),"U2OS [2]; 24 h, 1 µM",92% and 88%
same,Population Pyknosed Nuclei (%),"U2OS [2]; 24 h, 1 µM",20% and 15%
same,Total Cell Count,"U2OS [2]; 24 h, 1 µM",226 and 125
same,Population Apoptotic (%),"U2OS [2]; 24 h, 10 µM",76% and 75%
same,Population Fragmented Nuclei (%),"U2OS [2]; 24 h, 10 µM",12% and 14%
same,Population Healthy Nuclei (%),"U2OS [2]; 24 h, 10 µM",67% and 60%
same,Population Hoechst High Intensity Objects (%),"U2OS [2]; 24 h, 10 µM",4%
same,Population Mitochondria Different-Phenotype (%),"U2OS [2]; 24 h, 10 µM",97% and 100%
same,Population Mitotic Cells (%),"U2OS [2]; 24 h, 10 µM",23% and 25%
same,Population Normal (%),"U2OS [2]; 24 h, 10 µM",95% and 96%
same,Population Pyknosed Nuclei (%),"U2OS [2]; 24 h, 10 µM",20% and 25%
same,Population Tubulin-Different-Phenotype (%),"U2OS [2]; 24 h, 10 µM",88% and 100%
same,Population Apoptotic (%),"U2OS [2]; 48 h, 1 µM",50% and 57%
same,Population Fragmented Nuclei (%),"U2OS [2]; 48 h, 1 µM",8% and 11%
same,Population Healthy Nuclei (%),"U2OS [2]; 48 h, 1 µM",82% and 69%
same,Population Hoechst High Intensity Objects (%),"U2OS [2]; 48 h, 1 µM",8% and 6%
same,Population Membrane Permeable-Phenotype (%),"U2OS [2]; 48 h, 1 µM",9% and 6%
same,Population Mitochondria Different-Phenotype (%),"U2OS [2]; 48 h, 1 µM",20% and 29%
same,Population Mitotic Cells (%),"U2OS [2]; 48 h, 1 µM",50% and 42%
same,Population Normal (%),"U2OS [2]; 48 h, 1 µM",91% and 93%
same,Population Tubulin-Different-Phenotype (%),"U2OS [2]; 48 h, 1 µM",23% and 31%
same,Total Cell Count,"U2OS [2]; 48 h, 1 µM",110 and 208
same,Population Fragmented Nuclei (%),"U2OS [2]; 48 h, 10 µM",22% and 17%
same,Population Hoechst High Intensity Objects (%),"U2OS [2]; 48 h, 10 µM",5% and 3%
same,Population Mitochondria Different-Phenotype (%),"U2OS [2]; 48 h, 10 µM",100% and 97%
same,Population Normal (%),"U2OS [2]; 48 h, 10 µM",95% and 96%
same,Population Pyknosed Nuclei (%),"U2OS [2]; 48 h, 10 µM",47% and 25%
same,Population Tubulin-Different-Phenotype (%),"U2OS [2]; 48 h, 10 µM",100% and 95%
same,Growth Rate,Fibroblast [3]; 0 h,0
same,Growth Rate,Fibroblast [3]; 12 h,0
same,Growth Rate,Fibroblast [3]; 18 h,0
same,Growth Rate,Fibroblast [3]; 24 h,0
same,Growth Rate,U2OS [4]; 0 h,0
same,Growth Rate,U2OS [4]; 6 h,1
same,Growth Rate,U2OS [4]; 12 h,1
same,Growth Rate,U2OS [4]; 18 h,1
same,Growth Rate,U2OS [4]; 24 h,1
